Compound activity from PubChem BioAssay.
An excerpt weighted towards active compounds, which were near 1.5% of everything screened.
RAD52 anneal inh: blocks human RAD52 DNA annealing; P43351; 360,000 compounds, 0.46% hits; inhibition, % at 18.7 µM; recombinant RAD52 DNA annealing, FRET fluorescence;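 active means every replicate showing at least 50% inhibition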
PglD DTNB: inhibitors of Campylobacter jejuni PglD acetyltransferase; purified PglD enzyme, DTNB colorimetric CoA detection; AID 602405; inhibition, % at 12.5 µM; 360,000 compounds, 0.098% hits; in the data active means inhibition above about 16%, passing the limit was not always enough
RAD54 branch: RAD54 (human) branch migration inhibition; Q92698; RAD54 Holliday junction branch migration, FAM/BHQ fluorescence; inhibition, % at 10.4 µM; 360,000 compounds, 0.14% hits;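 active means mean normalized replicate activity at least 40 and at least half of replicates scoring 40 or more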;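 further: inhibitors cause a drop in the FAM fluorescence signal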
UUG fidelity: yeast start codon fidelity modulation; AID 602363; activity score, % at 18.7 µM; S. cerevisiae UUG-firefly luciferase reporter, luminescence/redox ratio; 0.13% of 350,000 active;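 active means replicate mean at a twofold rise or more, about +100% in these data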;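 further: firefly luciferase made from a UUG start codon reports start codon fidelity; reporter light over untreated wells divided by growth signal over untreated wells; some hits fall short of that in this replicate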
CASP6 VEID inh: caspase-6 (human) enzyme inhibition; purified caspase-6, Z-VEID-R110 cleavage fluorescence; inhibition, % at 12.5 µM; 350,000 compounds, 0.53% hits; AID 686996;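 active means mean inhibition across replicates at least about 35%, with every replicate also reaching that limit, limit read from the data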
INS-1E GSIS act: primary screen for activators of insulin secretion dependent on glucose, INS-1E cells, GLuc reporter luminescence. AID 743287. INS-1E GLuc reporter insulin secretion, 2-3 h. 370,000 compounds, 0.61% hits. activation, % at 16.6 µM;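 active means lowest replicate activation of at least 40%, so every replicate reaches that level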
Of the large screens only hits and unclear results are named; the others gave an inactive call; ! = repeats disagree.

O=C1NC(=O)N(Cc2ccc(F)cc2)C(=O)/C1=C\c1ccoc1	CASP6 VEID inh 47.3
CN(C)c1ccc(/C=C2\C(=O)NC(=O)N(Cc3ccc(F)cc3)C2=O)cc1	none
CCN(CC)S(=O)(=O)c1ccc(C)c(NCC(=O)Nc2ccc(C#N)c(Cl)c2)c1	none (no result: RAD52 anneal inh, CASP6 VEID inh)
O=C(Cc1ccccc1)N1CCCCN2[C@H](CO)[C@@H](c3ccc(C#Cc4ccccc4)cc3)[C@H]2C1	CASP6 VEID inh 54.1
CCN(CC)S(=O)(=O)N1CCC(C(=O)N2CCC3(CC2)OCCO3)CC1	none
CCOc1ccc(N2C(=O)/C(=C/c3ccc(C)o3)C(=O)NC2=S)cc1	none
COc1ccc(N2C(=O)/C(=C/c3ccc(C)o3)C(=O)NC2=S)cc1	CASP6 VEID inh 40.0
Cc1ccc(/C=C2\C(=O)NC(=S)N(c3cccc(F)c3)C2=O)o1	CASP6 VEID inh 48.2
CN1CCN(c2ccc(/C=C3\C(=O)NC(=S)N(c4cccc(Br)c4)C3=O)o2)CC1	none (no result: RAD52 anneal inh, PglD DTNB, RAD54 branch, UUG fidelity, CASP6 VEID inh)
C[C@H](NC(=O)N1C[C@H]2C[C@@H](C1)c1cccc(=O)n1C2)C(=O)Nc1cccc(F)c1	none
COC(=O)c1cc(C(O)(C(=O)OC)C(F)(F)F)c(/N=C/N(C)C)s1 (centres undefined)	none
COC(=O)[C@H]1[C@H](CO)[C@H]2Cn3c(ccc(-c4ccncc4)c3=O)[C@@H]1N2CCc1ccccc1	none (no result: UUG fidelity)
CN1CC[C@@]2(C)c3cc(O)ccc3N(C)[C@@H]12	RAD52 anneal inh 69.4! (no result: INS-1E GSIS act)
CC1(O)CCC2C3CCC4=CC(=O)CCC4(C)C34OC4CC21C (centres undefined)	none
C[C@]1(O)CC[C@H]2[C@@H]3CCC4=CC(=O)CC[C@]4(C)[C@@]3(F)[C@@H](O)C[C@@]21C	INS-1E GSIS act 80.4
CC1CCC(C(C)C)C(OC(=O)Cn2c(COc3ccccc3)[n+](C)c3ccccc32)C1 (centres undefined)	INS-1E GSIS act 153.7
CCC1(c2ccc(-c3ccccc3)cc2)C(=O)NC(=O)NC1=O	none
O=C(O)C1C2CCC(O2)C1C(=O)Nc1ccc(Cl)cc1 (centres undefined)	none (no result: PglD DTNB, RAD54 branch, UUG fidelity)
Cc1cc(/C=C2\C(=O)NC(=O)N(Cc3ccco3)C2=O)c(C)n1-c1ccc(C(=O)O)cc1	CASP6 VEID inh 70.6 (no result: RAD54 branch)
Cc1cc(/C=C2\C(=O)NC(=O)N(Cc3ccccc3Cl)C2=O)c(C)n1-c1ccc(C(=O)O)cc1	CASP6 VEID inh 47.8 (no result: PglD DTNB, RAD54 branch, UUG fidelity)
CCOC(=O)C1CCN(/C=C2/C(=O)NC(=O)N(Cc3ccco3)C2=O)CC1	CASP6 VEID inh 55.0
Cc1cc(/C=C2\C(=O)NC(=O)N(Cc3ccccc3)C2=O)c(C)n1-c1ccc(Cl)c(C(=O)O)c1	CASP6 VEID inh 66.1 (no result: PglD DTNB, RAD54 branch, UUG fidelity)
Cc1ccc(N2C(=O)NC(=O)/C(=C\c3cc(C)n(-c4ccc(C(=O)O)cc4)c3C)C2=O)cc1	none
c1ccc(CNC2CCCCCCC2)cc1 (tested in a mixture with another compound)	none (no result: PglD DTNB, RAD54 branch, UUG fidelity)
COC(=O)[C@@H]1[C@@H](CO)[C@@H]2Cn3c(cccc3=O)[C@H]1N2CCc1ccccc1	none (no result: UUG fidelity)
COC(=O)[C@H]1[C@H](CO)[C@H]2Cn3c(ccc(C4=CCCCC4)c3=O)[C@@H]1N2CC1CC1	none (no result: UUG fidelity)
Cc1ccc(OCCn2cccc2/C=C2/C(=O)NC(=O)N(Cc3ccco3)C2=O)cc1	CASP6 VEID inh 76.2 (no result: PglD DTNB, RAD54 branch, UUG fidelity)
Cc1cc(/C=C2\C(=O)NC(=O)N(Cc3ccco3)C2=O)c(C)n1-c1ccc(O)cc1	CASP6 VEID inh 69.0
Cc1ccc(/C=C2/C(=O)NC(=O)N(Cc3ccc(F)cc3)C2=O)o1	none (no result: PglD DTNB, RAD54 branch, UUG fidelity)
Cc1ccc(/C=C2\C(=O)NC(=O)N(Cc3ccccc3Cl)C2=O)o1	CASP6 VEID inh 50.6 (no result: PglD DTNB, RAD54 branch, UUG fidelity)
Cn1cccc1/C=C1\C(=O)NC(=O)N(Cc2ccco2)C1=O	none (no result: RAD52 anneal inh, CASP6 VEID inh)
COc1cccc(CNC(=O)CCC(=O)N2C[C@H]3C[C@H](C2)c2cccc(=O)n2C3)c1OC	none
N#CC(c1cccnc1)N1CCOCC1 (centres undefined)	none
O=C(Cc1cccnc1)N1CCCCN2[C@H](C1)[C@@H](c1ccc(C#CC3(O)CCCC3)cc1)[C@@H]2CO	none
Cc1ccc(S(=O)(=O)N(C)CCCC(=O)N2CCN(c3ccccn3)CC2)cc1	none (no result: RAD52 anneal inh, CASP6 VEID inh, INS-1E GSIS act)
C[C@H]1CC[C@@H]2[C@@H](C)[C@H]3[C@H](C[C@H]4[C@@H]5CC=C6C[C@@H](O[C@@H]7O[C@H](CO)[C@H](O)[C@H](O[C@@H]8O[C@H](CO)[C@@H](O)[C@H](O)[C@H]8O)[C@H]7O[C@@H]7O[C@@H](C)[C@H](O)[C@@H](O)[C@H]7O)CC[C@]6(C)[C@H]5CC[C@]34C)N2C1	INS-1E GSIS act 49.5
C[C@@H]1CC2C3CC=C4C[C@@H](O)CC[C@]4(C)C3CC[C@]2(C)[C@H]1O (some centres undefined)	none (no result: INS-1E GSIS act)
O=[N+]([O-])c1ccccc1Cl	none (no result: RAD54 branch)
O=C1NC(=O)C(Sc2ccccc2[N+](=O)[O-])C(=O)N1	CASP6 VEID inh 37.7
C/C(=N\N1CCCCCC1)c1c(O)n(-c2ccc(Cl)cc2)c(=O)[nH]c1=O	none (no result: INS-1E GSIS act)
C1CC2NCCC3NCCC(N1)N32 (centres undefined)	none
C=CCn1c(O)c(C(C)=NCCC(c2ccccc2)c2ccccc2)c(=O)[nH]c1=O	none (no result: RAD52 anneal inh, PglD DTNB, RAD54 branch, UUG fidelity, CASP6 VEID inh)
C=CCN1C(=O)/C(=C/c2ccc(Br)s2)C(=O)NC1=S	CASP6 VEID inh 52.6
C=CCN1C(=O)/C(=C\c2ccc(N3CCOCC3)o2)C(=O)NC1=S	none
CN1CCN(c2cccc3c2C(=O)c2ccccc2C3=O)CC1	RAD54 branch 78.9
CN(C)C1C(=O)C(C(N)=O)=C(O)C2(O)C(=O)C3=C(O)c4c(O)cccc4C(C)(O)C3C(O)C12 (centres undefined)	CASP6 VEID inh 53.3
CC1(C)CC(=O)c2cc(OCC(=O)N3CCN(Cc4ccccc4)CC3)ccc2O1	none (no result: PglD DTNB, RAD54 branch, UUG fidelity)
CC12CC(=O)C3C(CCC4CC=CCC43C)C1CCC2=O (centres undefined)	none (no result: PglD DTNB, RAD54 branch, UUG fidelity)
C=Cc1cc(OC)c2c(c1)c(=O)oc1c2cc(OC)c2c(O)ccc(C3OC(C)C(O)C(C)(O)C3O)c21 (centres undefined)	CASP6 VEID inh 52.5 (no result: PglD DTNB, RAD54 branch, UUG fidelity, INS-1E GSIS act)
COc1nc(NC(C)C)nc(NC(C)C)n1	INS-1E GSIS act 68.8 (no result: RAD52 anneal inh, CASP6 VEID inh)
CC[C@@H](CO)NC(=O)[C@@H]1C=C2c3cccc4c3c(cn4C)C[C@H]2N(C)C1	RAD54 branch 63.6, CASP6 VEID inh 72.8
CCC(CO)NC(=O)C1C=C2c3cccc4[nH]cc(c34)CC2N(C)C1 (centres undefined)	CASP6 VEID inh 48.5
CC[C@@H](CO)NC(=O)[C@@H]1C=C2c3cccc4[nH]cc(c34)C[C@H]2N(C)C1	CASP6 VEID inh 62.0
CN1C[C@H](CNC(=O)OCc2ccccc2)C[C@@H]2c3cccc4c3c(cn4C)C[C@H]21	none (no result: INS-1E GSIS act)
CC(C)C[C@H]1C(=O)N2CCC[C@H]2[C@]2(O)O[C@](NC(=O)[C@@H]3C=C4c5cccc6[nH]cc(c56)C[C@H]4N(C)C3)(C(C)C)C(=O)N12	none (no result: RAD52 anneal inh, CASP6 VEID inh, INS-1E GSIS act)
